Reference: patent US10675268B2, “Somatostatin receptor subtype 4 (SSTR4) agonists” (Centrexion Therapeutics Corporation, priority 2013, dated 2020)

Assay: Metabolic stability in pooled human liver microsomes (half-life)
Format: in vitro ADME
Details: 37° C., 1 μM test compound
Procedure: The metabolic stability of the compounds according to the invention may be investigated as follows:
The metabolic degradation of the test compound is assayed at 37° C. with pooled human liver microsomes. The final incubation volume of 100 μl per time point contains TRIS buffer pH 7.6 at room temperature (0.1 M), magnesium chloride (5 mM), microsomal protein (1 mg/mL) and the test compound at a final concentration of 1 μM. Following a short preincubation period at 37° C., the reactions are initiated by addition of beta-nicotinamide adenine dinucleotide phosphate, reduced form (NADPH, 1 mM), and terminated by transferring an aliquot into solvent after different time points. After centrifugation (10000 g, 5 min), an aliquot of the supernatant is assayed by LC-MS/MS for the amount of parent compound. The half-life is determined by the slope of the semi-logarithmic plot of the concentration-time profile.

**Q.** Which “Half-life t1/2” value does the source give for `Cc1nnc(C(C)(C)NC(=O)[C@H]2[C@@H]3CNC[C@@H]32)c2ccccc12` [Example 77] here?
**A.** >2.17 h

**Q.** For `CC(C)(NC(=O)[C@H]1[C@@H]2CNC[C@@H]21)c1ncnc2ccccc12` [Example 89], which “Half-life t1/2” value is on record?
**A.** >2.17 h

**Q.** Which “Half-life t1/2” value does the source give for `CC(C)(NC(=O)[C@H]1[C@@H]2CNC[C@@H]21)c1cncc2ccccc12` [Example 90] here?
**A.** >2.17 h

**Q.** For `Cc1cccc2c(C(C)(C)NC(=O)[C@H]3[C@@H]4CNC[C@@H]43)noc12` [Example 92], which “Half-life t1/2” value is on record?
**A.** >2.17 h

**Q.** Which “Half-life t1/2” value does the source give for `CC(C)(NC(=O)[C@H]1[C@@H]2CNC[C@@H]21)c1noc2c(Cl)cccc12` [Example 103] here?
**A.** >2.17 h

**Q.** With `CC(C)(NC(=O)[C@H]1[C@@H]2CNC[C@@H]21)c1noc2c(C3CC3)cccc12` [Example 104] as the compound, how does the “Half-life t1/2” value read?
**A.** >2.17 h
